From patent US9108943B2, “Photoreactive benzamide probes for histone deacetylase 2” (THE BOARD OF TRUSTEES OF THE UNIVERSITY OF ILLINOIS, priority 2013, dated 2015) come the findings set out here.

Chains of the proteins cited; added tags and fusions are not shown.
UniProt Q92769, whole entry: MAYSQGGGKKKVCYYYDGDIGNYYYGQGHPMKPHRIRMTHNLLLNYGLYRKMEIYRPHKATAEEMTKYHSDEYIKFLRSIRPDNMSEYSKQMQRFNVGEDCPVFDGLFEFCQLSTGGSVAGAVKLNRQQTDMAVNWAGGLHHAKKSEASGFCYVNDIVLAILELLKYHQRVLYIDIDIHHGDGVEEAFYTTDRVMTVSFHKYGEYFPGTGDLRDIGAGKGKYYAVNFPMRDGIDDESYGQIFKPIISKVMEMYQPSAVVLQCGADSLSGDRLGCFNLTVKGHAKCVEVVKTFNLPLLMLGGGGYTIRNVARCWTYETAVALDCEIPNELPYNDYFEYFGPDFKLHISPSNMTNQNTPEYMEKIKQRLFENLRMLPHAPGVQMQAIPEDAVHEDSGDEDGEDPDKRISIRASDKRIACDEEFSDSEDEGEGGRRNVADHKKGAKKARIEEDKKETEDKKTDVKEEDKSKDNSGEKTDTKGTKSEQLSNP

The IC50 is the concentration that gives 50% inhibition.

The assay addresses T1, recombinant human HDAC2 (Homo sapiens, UniProt Q92769).
T1 construct: purchased BPS Bioscience
Description: Fluorogenic HDAC inhibition assay, HDAC2 (Boc-L-Lys(Ac)-AMC substrate). It counts as biochemical. How it is done: 10 μL of the enzyme stock was added to 30 μL of the probes and preincubated for different preincubation times.

As to `[N-]=[N+]=NCc1cc(COC(=O)NCc2ccc(C(=O)Nc3cc(-c4cccs4)ccc3N)cc2)cc(N=[N+]=[N-])c1` [probe 2c, 3-azido-5-(azidomethyl)benzyl 4-((2-amino-5-(thiophen-2-yl)phenyl)carbamoyl)benzylcarbamate], the “increase in inhibition of HDAC2 upon preincubation (IC50 ratio)” value (preincubation 3 h vs 5 min) was 7.1 fold.
As for `[N-]=[N+]=Nc1ccc(C(=O)Nc2cc(-c3ccccc3)ccc2N)cc1` [probe 1a, N-(4-amino-[1,1′-biphenyl]-3-yl)-4-azidobenzamide], the IC50 was 210 nM.
On the same count and under the same terms, under `[N-]=[N+]=Nc1ccc(C(=O)Nc2cc(-c3cccs3)ccc2N)cc1` [probe 1b, N-(2-amino-5-(thiophen-2-yl)phenyl)-4-azidobenzamide] stands 110 nM.
